Source: ChEMBL document CHEMBL4020849, “4,6-Diaminopyrimidines as Highly Preferred Troponin I-Interacting Kinase (TNNI3K) Inhibitors” (J Med Chem, 2018)

Target: T1, Serine/threonine-protein kinase TNNI3K (Homo sapiens, UniProt Q59H18)
T1 sequence (Q59H18 whole entry): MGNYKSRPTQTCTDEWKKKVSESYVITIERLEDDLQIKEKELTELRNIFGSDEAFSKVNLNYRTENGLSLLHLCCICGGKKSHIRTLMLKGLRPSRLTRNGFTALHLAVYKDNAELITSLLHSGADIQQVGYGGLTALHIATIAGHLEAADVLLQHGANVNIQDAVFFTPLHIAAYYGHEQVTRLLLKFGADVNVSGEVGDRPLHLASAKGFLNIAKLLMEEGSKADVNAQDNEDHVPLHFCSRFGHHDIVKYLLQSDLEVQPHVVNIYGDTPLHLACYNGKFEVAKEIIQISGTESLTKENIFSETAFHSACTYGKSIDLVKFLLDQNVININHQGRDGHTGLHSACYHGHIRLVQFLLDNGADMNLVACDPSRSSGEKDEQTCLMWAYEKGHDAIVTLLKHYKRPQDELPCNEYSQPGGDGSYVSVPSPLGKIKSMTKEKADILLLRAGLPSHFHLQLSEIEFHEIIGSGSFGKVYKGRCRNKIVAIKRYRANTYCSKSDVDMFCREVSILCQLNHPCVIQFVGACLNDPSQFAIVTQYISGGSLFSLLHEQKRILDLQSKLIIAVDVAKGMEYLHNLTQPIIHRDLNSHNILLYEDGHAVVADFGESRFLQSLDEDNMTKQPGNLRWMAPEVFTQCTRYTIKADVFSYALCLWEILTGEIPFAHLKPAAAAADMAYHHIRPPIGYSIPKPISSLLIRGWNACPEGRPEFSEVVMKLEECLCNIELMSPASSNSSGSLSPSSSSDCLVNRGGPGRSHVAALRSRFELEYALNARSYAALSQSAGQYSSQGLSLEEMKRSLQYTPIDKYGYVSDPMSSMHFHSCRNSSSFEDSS
Assay: Inhibition of 5-({[2-({[3-({4-[(5-hydroxy-2-methylphenyl)amino]-2-pyrimidinyl}amino)phenyl]carbonyl}amino)-ethyl]amino}carbonyl)-2-(6-hydroxy-3-oxo-3H-xanthen-9-yl)benzoic acid binding to human full length His/MBP-fused TNNI3K expressed in baculovirus expression system after 60 mins by fluorescence polarization assay

- IC50: 400 nM
Structure (SMILES): CNS(=O)(=O)c1cccc(Nc2cc(Nc3cccc(C(C)(C)C)c3)ncn2)c1
